Data reported in PubChem BioAssay AID1159550 (Chen Lab, School of Medicine, Emory University, 2015).
Only a part is listed here, and it is no random draw. Active and inactive are the calls of the source.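 Rule for the calls: active = at least 20% inhibition of 6-phosphogluconate dehydrogenase activity; inactive = the rest.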

Chains of the proteins cited; added tags and fusions are not shown.
UniProt P52209, whole entry: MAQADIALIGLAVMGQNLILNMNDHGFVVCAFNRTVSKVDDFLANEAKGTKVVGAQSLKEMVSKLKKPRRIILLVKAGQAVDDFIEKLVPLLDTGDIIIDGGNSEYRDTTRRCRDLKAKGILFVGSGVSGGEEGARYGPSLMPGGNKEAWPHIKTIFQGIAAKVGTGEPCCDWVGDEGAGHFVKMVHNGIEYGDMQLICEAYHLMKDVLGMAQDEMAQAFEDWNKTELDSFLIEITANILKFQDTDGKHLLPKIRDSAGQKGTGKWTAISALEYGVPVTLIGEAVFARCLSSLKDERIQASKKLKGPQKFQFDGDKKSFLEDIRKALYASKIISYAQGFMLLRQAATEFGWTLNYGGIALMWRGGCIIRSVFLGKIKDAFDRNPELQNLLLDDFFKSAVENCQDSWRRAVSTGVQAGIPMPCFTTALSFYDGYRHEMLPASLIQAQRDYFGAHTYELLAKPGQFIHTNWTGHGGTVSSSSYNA

molecular target: 6-phosphogluconate dehydrogenase, decarboxylating (Homo sapiens) (UniProt P52209); assay: inhibition of human phosphogluconate dehydrogenase – biochemical, recombinant enzyme, NADPH absorbance, primary screen (AID 1159550); conditions: recombinant 6PGD, NADPH absorbance 341 nm; at 10 µM; stronger effect = higher value

Compound	inhibition
CCN(CCCl)Cc1ccccc1C	inactive: -4.89%
OCCSCCO	inactive: -8.85%
